Screening results: PubChem BioAssay, several laboratories
A selection: hits, their analogues and other compounds. The true share with any hit is near 4.2%.
HDAC3 inh: inhibitors of human histone deacetylase 3. 320,000 compounds, 0.15% hits. O15379. recombinant HDAC3, fluorogenic peptide/trypsin coupled, fluorescence. inhibition, % at 8.3 µM; in the data active means inhibition above about 26%, passing the limit was not always enough; inconclusive means no clear call, values can overlap the other calls
MC4R antag cAMP: human MC4R antagonism in cAMP assay. inhibition, % at 6.5 µM. MC4R-expressing cells, MTII-stimulated cAMP, LANCE TR-FRET. AID 540295. P32245. 360,000 compounds, 0.48% hits;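 active means inhibition above its plate's cutoff, the mean of tested wells on that plate plus 3 SD, cut at about 29% in these data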;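 further: 0% = Melanotan II alone and 100% = Melanotan II plus saturating MCL0020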
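material = U2OS cells stably expressing human melanocortin 4 receptor (MC4R) | also added = Melanotan II challenge | dosing = single nominal compound dose of 6.5 µM | detection = TR-FRET with Eu-cAMP and labeled anti-cAMP, 671 nm | replication = singlicate | timing = compound 30 min, challenge 1 h, detection 1 h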
Yeast UUG start: alters start codon recognition fidelity in yeast; S. cerevisiae UUG-firefly luciferase reporter, luminescence/redox ratio; activity score, % at 18.7 µM; actives 0.13% (n = 350,000); AID 602363;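 active = replicate mean at a twofold rise or more, about +100% in these data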;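 also: firefly luciferase made from a UUG start codon reports start codon fidelity; reporter light over untreated wells divided by growth signal over untreated wells; some hits fall short of that in this replicate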
MC4R ag barr: agonists of human melanocortin 4 receptor (MC4R) beta-arrestin; 360,000 compounds, 0.98% hits; U2OS MC4R beta-arrestin complementation, luminescence; percent of melanotan II response, DMSO zero; P32245; AID 540308; activation, % at 8.9 µM;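 active means activation above a per-plate cutoff, the mean activation of sample wells on that plate plus 3 SD, cut at about 8% in these data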
NALP1 inh: blocks the NALP1 inflammasome reconstituted in yeast | S. cerevisiae NALP1/ASC/caspase-1 growth, X-gal OD620, 72 h | inhibition, % at 10 µM | 280,000 compounds, 0.61% hits; in the data active means inhibition mostly above about 24%, no sharp cut-off; inactive means mostly below about 32%
ALR inh: inhibitors of human ALR sulfhydryl oxidase, primary screen, biochemical, H2O2 detection, HRP-luminol luminescence, single point | FAD-linked sulfhydryl oxidase ALR (Homo sapiens), P55789 | purified ALR, DTT oxidation | inhibition, % (concentration not given with the values) | actives 3.8% (n = 290,000) | AID 485317, 2010;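 active = mean and each replicate at 75% or more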;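 also: stock transfer was 7.5 nL into about 7.5 µL; 0% = neutral wells and 100% = wells with inactivated enzyme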
Active calls of the source: *; ? = inconclusive; . = not tested or not shown.

SMILES | HDAC3 inh | MC4R antag cAMP | Yeast UUG start | MC4R ag barr | NALP1 inh | ALR inh
CCN(CC)C(=O)C1CCCN(c2ccc([N+](=O)[O-])cc2/C=N/NC(=O)c2ccc([N+](=O)[O-])cc2)C1 (stereo unspecified) | 8 | 4 | -17 | 0 | -2 | -5
CCN(CC)C(=O)C1CCCN(c2ccc([N+](=O)[O-])cc2)C1 (stereo unspecified) | 2 | 9 | . | -1 | 35* | .
Cc1ccccc1OCC(=O)N(Cc1cccs1)C1CCS(=O)(=O)C1 (stereo unspecified) | 8 | -2 | -10 | -1 | 0 | 97*
CCOc1ccc(CN(C(=O)c2cccs2)C2CCS(=O)(=O)C2)cc1 (stereo unspecified) | -9 | 2 | 5 | 0 | 11 | 3
CN(C)c1ccc(CN(C(=O)c2cccs2)C2CCS(=O)(=O)C2)cc1 (stereo unspecified) | 0 | 26 | -17 | -1 | -23 | 93*
O=C(c1cccs1)N(CC1CCCO1)c1nc(-c2ccccc2)cs1 (stereo unspecified) | 10 | 9 | -15 | 0 | 6 | -3
CN(C)c1ccc(CN(C(=O)/C=C/c2ccco2)C2CCS(=O)(=O)C2)cc1 (stereo unspecified) | 6 | -7 | -11 | -3 | 4 | 86*
CN(C)c1ccc(CN(CC2CCCO2)C(=O)c2cccs2)cc1 (stereo unspecified) | 3 | 13 | -9 | -1 | 18 | 92*
COc1ccc(CN2C[C@H](O)COC[C@@H]3O[C@H](CC(=O)N4CCc5ccccc5C4)CC[C@H]32)cc1 | . | . | -8 | . | . | .
CCNC(=O)C[C@@H]1CC[C@H]2[C@@H](COc3ccc(NC(=O)c4ccc5c(c4)OCO5)cc3C(=O)N2C)O1 | . | . | -5 | . | . | .
COc1cccc(C(=O)N(Cc2ccc(N(C)C)cc2)C2CCS(=O)(=O)C2)c1 (stereo unspecified) | 1 | 1 | -9 | -2 | 6 | 88*
CCOc1ccccc1NC(=O)C(CC(C)C)NC(=O)C1CCC(C)CC1 (stereo unspecified) | 2 | 6 | -10 | 0 | 43* | .
CCOc1ccccc1NC(=O)C(NC(=O)C1CCC(C)CC1)C(C)C (stereo unspecified) | -8 | 3 | . | -1 | 6 | -6
C[C@@H]1CN([C@H](C)CO)C(=O)CCCn2cc(nn2)CO[C@H]1CN(C)Cc1ccc2c(c1)OCCN2C | . | . | 2 | . | . | .
CCOC(=O)N(C)C[C@H]1OCc2ccccc2-c2ccccc2C(=O)N([C@@H](C)CO)C[C@H]1C | . | . | -9 | . | . | .
Cc1ccc(NC(=O)C2CC(=O)N/C(=N/N=C/c3ccco3)S2)cc1 (stereo unspecified) | 1 | 0 | . | -1 | 24 | -3
O=C1CC(C(=O)Nc2ccc(F)cc2)S/C(=N\N=C\c2ccco2)N1 (stereo unspecified) | 4 | 1 | . | -2 | 10 | 96*
CCCOC(=O)C(C)n1c(-c2ccccc2)nc2ccccc2c1=O (stereo unspecified) | -19 | 5 | -8 | 1 | -6 | 91*
COc1cc(/C=C/C(=O)C2C(=O)C=C(C)OC2=O)cc(OC)c1O (stereo unspecified) | 5 | 4 | . | 0 | 24 | 99*
COc1ccc(/C=C/C(=O)C2C(=O)C=C(C)OC2=O)cc1O (stereo unspecified) | 3 | 7 | -6 | 1 | 28 | ?
O=C(C[C@H]1CC[C@@H](NC(=O)C2CCC2)[C@H](CO)O1)NC1CCC1 | . | . | -6 | . | . | .
COc1cccc(/C=N/N2C(=O)CSC2=S)c1O | 6 | -8 | . | -2 | 8 | 98*
COc1ccc(/C=N/N2CCN(c3ccccc3OC)CC2)cc1OC | 2 | 5 | 0 | 1 | 32 | 32
COc1ccccc1N1CCN(/N=C/c2cccc(OC)c2O)CC1 | -3 | 13 | . | 3 | 3 | 93*
COc1cccc(/C=N/N2CCN(C3c4ccccc4-c4ccccc43)CC2)c1O | -6 | 13 | -12 | -3 | -17 | -1
COc1ccccc1N1CCN(/N=C(\C)c2ccc(O)cc2)CC1 | 2 | 2 | -49 | 2 | 17 | 99*
COc1ccccc1N1CCN(/N=C/c2ccc(C(=O)O)cc2)CC1 | 1 | -3 | -31 | -1 | 6 | -55
COc1ccccc1N1CCN(/N=C/c2ccc(O)c(O)c2)CC1 | -3 | . | . | . | 2 | 100*
O=C(Cc1ccccn1)N[C@H]1CC[C@@H](CCNC(=O)c2cc(Cl)cc(Cl)c2)O[C@H]1CO | . | . | 12 | . | . | .
COC(=O)[C@H]1[C@H](CO)[C@H]2Cn3c(ccc(C4=CCCCC4)c3=O)[C@H]2N1C(=O)C1CCC1 | . | . | -2 | . | . | .
CCS(=O)(=O)N[C@H]1C=C[C@@H](CC(=O)N2CCCCC2)O[C@H]1CO | . | . | -1 | . | . | .
COc1cc(/C=N/N2CCN(c3ccc(Cl)cc3)CC2)cc(OC)c1OC(C)=O | -1 | 4 | 5 | -1 | -3 | 47
CCN(CC)c1ccc(/C=N/N2CCN(c3ccccc3OC)CC2)cc1 | 3 | 2 | -32 | 1 | 12 | 99*
COc1cc(/C=N/N2CCN(c3ccccc3)CC2)cc(OC)c1OC(C)=O | 4 | -4 | -11 | 0 | -2 | 97*
CO[C@@H]1CN(C)C(=O)c2ccc(NC(C)=O)cc2OC[C@H](C)N(C(=O)C2CCOCC2)C[C@H]1C | . | . | 7 | . | . | .
C[C@H](NC(=O)C[C@@H]1C=C[C@@H](NC(=O)C2CCOCC2)[C@@H](CO)O1)c1ccccc1 | . | . | -18 | . | . | .

Whole records, quoted from the list.
`CCN(CC)c1ccc(/C=N/N2CCN(c3ccccc3OC)CC2)cc1` is listed as HDAC3 inh: 3; MC4R antag cAMP: 2; Yeast UUG start: -32; MC4R ag barr: 1; NALP1 inh: 12; ALR inh: 99*
`COc1ccc(/C=C/C(=O)C2C(=O)C=C(C)OC2=O)cc1O` (stereo unspecified) is listed as HDAC3 inh: 3; MC4R antag cAMP: 7; Yeast UUG start: -6; MC4R ag barr: 1; NALP1 inh: 28; ALR inh: ?

Going on with the list.
SMILES | HDAC3 inh | MC4R antag cAMP | Yeast UUG start | MC4R ag barr | NALP1 inh | ALR inh
O=C(O)C(NS(=O)(=O)c1ccc(F)cc1)c1ccccc1 (stereo unspecified) | 2 | 4 | . | 1 | -22 | -6
CCC/C=C(\CCC)C(NS(=O)(=O)c1ccc(C(F)(F)F)cc1)c1ccccc1 (stereo unspecified) | 27* | . | . | . | 25 | -16
COc1ccc(C2=CSC3=NCCN23)cc1Cl | -5 | -1 | -24 | -3 | 27 | 13
COc1ccc(C2=CSC3=NCCN23)cc1F | 18 | 2 | . | -2 | 4 | 85*
C[C@@H]1CN([C@@H](C)CO)C(=O)c2cc(C#CC3CCCCC3)cnc2O[C@@H]1CN(C)C(=O)Cc1ccccn1 | . | . | 9 | . | . | .
Oc1cc(-c2ccccc2)c2ccccc2c1 | 0 | 10 | . | 4 | 47 | 99*
c1ccc2c(c1)-c1cccc3c1c-2cc1ccccc13 | -28 | . | . | . | . | -1
CC(=O)Nc1ccc(Nc2nc(C(F)(F)F)nc3c2nnn3Cc2ccccc2Cl)cc1 | -2 | 22 | -28 | 8.9* | 7 | -14
COc1ccc(-c2cc(C(F)(F)F)nc(S(=O)(=O)CCC(=O)N3CCOCC3)n2)cc1 | 5 | 3 | -4 | 2 | -10 | 90*
O=C(CCl)N(CCc1ccccc1)CCc1ccccc1 | ? | 5 | -16 | 8.3* | 2 | 71
COc1ccc(C(=O)Nc2cc(C(C)=O)c(C)oc2=O)cc1 | -2 | 7 | -20 | -1 | 19 | 92*

Among those listed so far, two contain a COOH group.
SMILES | HDAC3 inh | MC4R antag cAMP | Yeast UUG start | MC4R ag barr | NALP1 inh | ALR inh
COc1ccccc1N1CCN(/N=C/c2ccc(C(=O)O)cc2)CC1 | 1 | -3 | -31 | -1 | 6 | -55
O=C(O)C(NS(=O)(=O)c1ccc(F)cc1)c1ccccc1 (stereo unspecified) | 2 | 4 | . | 1 | -22 | -6
